Columns and labels:
[1] = biological target: 5-hydroxytryptamine receptor 1A (Homo sapiens) (UniProt P08908); experiment: Agonist activity at 5HT1A (unknown origin) relative to control; details: filed as agonist
[2] = biological target: T1, Trace amine-associated receptor 1 (Homo sapiens) (UniProt Q96RJ0); experiment: Agonist activity at human TAAR1 relative to control; details: filed as agonist
T1 sequence (whole entry): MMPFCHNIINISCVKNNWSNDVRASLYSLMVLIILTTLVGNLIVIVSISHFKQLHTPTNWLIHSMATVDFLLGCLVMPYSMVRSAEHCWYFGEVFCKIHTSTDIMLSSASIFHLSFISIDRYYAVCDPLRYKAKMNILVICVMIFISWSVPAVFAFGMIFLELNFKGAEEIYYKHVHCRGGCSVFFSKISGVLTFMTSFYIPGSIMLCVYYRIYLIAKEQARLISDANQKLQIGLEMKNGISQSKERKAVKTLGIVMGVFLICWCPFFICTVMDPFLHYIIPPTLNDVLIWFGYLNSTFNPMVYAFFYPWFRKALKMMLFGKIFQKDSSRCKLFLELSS

Sequences of proteins named here, by UniProt entry; tags and fusion partners are left off.
UniProt P08908, whole entry: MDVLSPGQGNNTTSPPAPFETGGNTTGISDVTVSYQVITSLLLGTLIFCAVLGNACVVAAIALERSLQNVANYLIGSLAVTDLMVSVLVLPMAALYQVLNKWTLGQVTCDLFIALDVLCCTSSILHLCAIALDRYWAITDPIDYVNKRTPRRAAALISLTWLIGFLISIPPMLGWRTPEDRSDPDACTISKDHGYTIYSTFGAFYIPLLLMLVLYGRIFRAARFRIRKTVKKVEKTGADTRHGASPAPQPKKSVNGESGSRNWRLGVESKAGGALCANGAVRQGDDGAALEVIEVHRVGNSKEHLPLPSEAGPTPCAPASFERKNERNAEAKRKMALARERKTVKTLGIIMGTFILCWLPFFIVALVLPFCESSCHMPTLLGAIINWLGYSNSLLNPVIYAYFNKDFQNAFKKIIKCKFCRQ

CNC[C@@H]1OCCc2ccsc21
Emax [1]: 75% | Emax [2]: 101%

Reference: ChEMBL document CHEMBL5233201, “Progress in mechanistically novel treatments for schizophrenia” (RSC Med Chem, 2021)
